Data: patent US6518290B1, “Substituted oxazoles and thiazoles derivatives as HPPAr alpha activators” (priority 1999, dated 2003)

Target: T1, human PPAR alpha (Homo sapiens, UniProt Q07869)
T1 construct: expressed in transfected cells; host or cells: CV-1 cells
T1 sequence (Q07869 239-466 limits assumed): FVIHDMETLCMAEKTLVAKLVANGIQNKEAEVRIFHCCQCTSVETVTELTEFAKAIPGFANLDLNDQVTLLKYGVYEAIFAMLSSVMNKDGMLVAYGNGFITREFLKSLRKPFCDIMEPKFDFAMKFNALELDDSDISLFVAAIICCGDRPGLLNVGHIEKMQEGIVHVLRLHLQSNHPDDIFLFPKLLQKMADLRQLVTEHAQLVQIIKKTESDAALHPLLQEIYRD
Test: PPAR transient transfection (transactivation) assay in CV-1 cells, hPPAR alpha
Assay type: cell-based
Details: PPAR LBD-GAL4 chimera, SPAP reporter, 24 h with compound, read-out: human αEC50
Description: Compounds were screened for functional potency in transient transfection assays in CV-1 cells for their ability to activate the PPAR subtypes (transactivation assay). A previously established chimeric receptor system was utilized to allow comparison of the relative transcriptional activity of the receptor subtypes on the same target gene and to prevent endogenous receptor activation from complicating the interpretation of results. See, for example, Lehmann, J. M.; Moore, L. B.; Smith-Oliver, T. A.; Wilkison, W. O.; Willson, T. M.; Kliewer, S. A., An antidiabetic thiazolidinedione is a high affinity ligand for peroxisome proliferator-activated receptor γ (PPARγ), J. Biol. Chem., 1995, 270, 12953-6. The ligand binding domains for murine and human PPAR alpha, PPAR gamma, and PPAR delta were each fused to the yeast transcription factor GAL4 DNA binding domain. CV-1 cells were transiently transfected with expression vectors for the respective PPAR chimera along with a reporter construct containing five copies of the GAL4 DNA binding site driving expression of secreted placental alkaline phosphatase (SPAP) and β-galactosidase. After 16 h, the medium was exchanged to DME medium supplemented with 10% delipidated fetal calf serum and the test compound at the appropriate concentration. […]

- EC50: 6 nM
Structure (SMILES): Cc1nc(-c2ccc(C(F)(F)F)cc2)sc1C(=O)NCc1ccc(OC(C)(C)C(=O)O)cc1 [Example 2, 2-Methyl-2-[4-{[(4-methyl-2-[4-trifluoromethylphenyl]-thiazol-5-ylcarbonyl)amino]methyl}phenoxy]propionic Acid]
